Our source for the Ki values is ChEMBL document CHEMBL3992534, “Design, Synthesis, and Biological Evaluation of Novel, Non-Brain-Penetrant, Hybrid Cannabinoid CB1R Inverse Agonist/Inducible Nitric Oxide Synthase (iNOS) Inhibitors for the Treatment of Liver Fibrosis” (J Med Chem, 2017).

Amino acid sequences for entries named in this document (tags omitted).
UniProt P47746, whole entry: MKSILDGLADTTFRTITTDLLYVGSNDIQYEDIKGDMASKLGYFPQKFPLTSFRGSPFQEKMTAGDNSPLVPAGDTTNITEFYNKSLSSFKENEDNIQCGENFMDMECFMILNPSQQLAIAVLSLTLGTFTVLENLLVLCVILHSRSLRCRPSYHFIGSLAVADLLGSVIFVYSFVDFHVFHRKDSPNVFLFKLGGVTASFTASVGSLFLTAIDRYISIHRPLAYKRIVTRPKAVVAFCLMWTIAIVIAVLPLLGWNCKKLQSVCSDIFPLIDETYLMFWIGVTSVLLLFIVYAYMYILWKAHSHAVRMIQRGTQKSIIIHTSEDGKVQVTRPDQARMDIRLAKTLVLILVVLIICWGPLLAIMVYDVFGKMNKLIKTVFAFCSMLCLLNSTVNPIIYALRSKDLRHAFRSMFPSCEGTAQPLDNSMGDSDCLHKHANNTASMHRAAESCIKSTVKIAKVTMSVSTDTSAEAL

The target of the experiment is Cannabinoid receptor 1 (Mus musculus, UniProt P47746). The experiment can be described thus: Displacement of [3H]CP55940 from mouse brain CB1R expressed in CHOK1 cell membranes. In a few lines:
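Displacement binding isotherms with [3H]-CP55940 as labeled ligand on plasma membranes from CHO-K1 cells expressing CB1R or CB2R. Ki was calculated by the Cheng-Prusoff equation. Values are mean ± SEM of 3 independent experiments, each run in triplicate.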
In general terms: In a radioligand displacement assay an active substance lowers the binding of a labelled ligand.

One may read the Ki as the equilibrium dissociation constant of an inhibitor or competing ligand from its target. The low end stands for higher affinity, the high end for lower affinity. `C/C(N)=N\C(=N/S(=O)(=O)c1ccc(Cl)cc1)N1C[C@@H](c2ccccc2)C(c2ccc(Cl)cc2)=N1` returned a Ki of 671 nM.

As to `C/C(N)=N\C(=N/S(=O)(=O)c1ccc(Cl)cc1)N1C[C@H](c2ccccc2)C(c2ccc(Cl)cc2)=N1`, the affinity corresponds to a Ki of 7.9 nM.
